In US20140099354A1, “BIOPASSIVATING MEMBRANE STABILIZATION BY MEANS OF NITROCARBOXYLIC ACID-CONTAINING PHOSPHOLIPIDS IN PREPARATIONS AND COATINGS” (priority 2011, published 2014):

System: Murine macrophages (RAW 264.7)

Substance	viability of adhering macrophages
1-erucinyl-2-(9-nitrogadoleoyl)-sn-3-glycerophosphocholine and 1-erucinyl-2-(10-nitrogadoleoyl)-sn-3-glycerophosphocholine [Example P3]	95-98%
1-Palmitoyl-2-(10-hydroxy-9-nitro-α-linolenoyl)-sn-3-glycerophosphocholine and 1-palmitoyl-2-(9-hydroxy-10-nitro-α-linolenoyl)-sn-3-glycerophosphocholine [Example O6]	95-98%
